Experimental data from patent US10023543B2 (CELGENE QUANTICEL RESEARCH, INC., priority 2014, dated 2018).

Columns and labels:
Kasumi-1 = Kasumi-1 AML cell line proliferation assay (Cell-MTS assay); assay type: cell-based; settings: Homo sapiens, 168 hours
From the text: Colorimetric cellular assay to assess the ability of LSD-1 small molecule inhibitors to effect the proliferation of the established AML cancer cell line Kasumi-1.
This Cell-MTS assay is a 7-day plate based colorimetric assay which quantifies the amount of newly generated NADH in the presence and absence of test compound. These NADH levels are used as a proxy for the quantification of cancer cell proliferation.
The established cancer cell line Kasumi-1 with a verified p53 mutation were purchased from American Type Culture Collection (ATCC) and routinely passaged according to ATCC published protocols. For routine assay these cells were seeded at a density of 20,000 cells per 96-well. 24 hours after plating, cells received an 11 point dilution of test compound with final concentration ranges from 100 μM to 2.0 nM. Cells are incubated in the presence of compound for 168 hours at 37° C., 5% CO2. At the end of this compound incubation period, 80 μl of media is removed and 20 μL of CellTiter 96® AQueous Non-Radioactive Cell Proliferation Assay solution (Promega) is added. The cells are incubated until the OD490 is >0.6. IC50 values are calculated using the IDBS XLfit software package and include background subtracted OD490 values and normalization to DMSO controls.

THP-1 (AML) cells = assay: LSD1 CD11b cellular assay (flow cytometry); assay type: cell-based; settings: Homo sapiens, THP-1, 96 h, read-out: THP-1 IC50 (μM)

| Structure (SMILES) | IC50 (Kasumi-1) | IC50 (THP-1 (AML) cells) |
| --- | --- | --- |
| COc1ccc(-c2c(-c3ccc(C#N)c(F)c3)nc(N3CCC(N)CC3)n(C)c2=O)cc1F [Example 7, 4-[2-(4-amino-piperidin-1-yl)-5-(3-fluoro-4-methoxy-phenyl)-1-methyl-6-oxo-1,6-dihydro-pyrimidin-4-yl]-2-fluoro-benzonitrile] | < 100 nM |  |
| COc1ccc(-c2c(-c3ccc(C#N)c(F)c3)nc(N(C)C3CCNCC3)n(C)c2=O)cc1 [Example 55, 2-fluoro-4-[5-(4-methoxy-phenyl)-1-methyl-2-(methyl-piperidin-4-yl-amino)-6-oxo-1,6-dihydro-pyrimidin-4-yl]-benzonitrile] |  | 0.1 to 1 µM |
